Literature values as cited in patent US20050250788A1, “Aqueous outflow enhancement with vasodilated aqueous cavity” (priority 2004, published 2005).

Tested on: uptake of serotonin into human platelets
Conditions: at clinical doses

CN[C@H]1CC[C@@H](c2ccc(Cl)c(Cl)c2)c2ccccc21 [sertraline]
uptake of serotonin into human platelets: blocks the uptake of serotonin
